As usually defined, the IC50 is the midpoint of a concentration-inhibition curve.

By UniProt entry, the sequences of proteins in these tests, tags left out.
UniProt Q9NYA1, whole entry: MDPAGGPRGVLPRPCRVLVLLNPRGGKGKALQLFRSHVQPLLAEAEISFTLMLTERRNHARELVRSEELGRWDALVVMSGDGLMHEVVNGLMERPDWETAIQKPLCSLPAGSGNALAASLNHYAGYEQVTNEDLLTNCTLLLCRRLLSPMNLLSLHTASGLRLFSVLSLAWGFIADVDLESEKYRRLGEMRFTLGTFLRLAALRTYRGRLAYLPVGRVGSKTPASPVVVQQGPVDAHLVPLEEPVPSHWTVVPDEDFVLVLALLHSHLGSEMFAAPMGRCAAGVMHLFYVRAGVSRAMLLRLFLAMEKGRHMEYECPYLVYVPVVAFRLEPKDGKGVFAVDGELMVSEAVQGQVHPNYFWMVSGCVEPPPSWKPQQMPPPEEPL

This experiment deals with T1, SPHK-1 (Homo sapiens, UniProt Q9NYA1).
T1 construct: purchased BPS Bioscience
In words: Reporter Assay: sphingosine kinase conversion of fluorescein-labeled sphingosine, read on Lab Chip 3000. It counts as biochemical. The following applies: 2 μM Fl-sphingosine, 25 μM ATP, 300 ng/ml SK1, 1 hour at room temperature; from percent conversion of substrate to product; read-out: SPHK-1 IC50 (n =). Here is the method: Sphingosine kinase is a 49 kDa enzyme that catalyzes the formation of sphingosine-1-phosphate (S-1-P) from sphingosine.
Fluorescein labeled sphingosine was obtained from Echelon Biosciences (S-100F). Buffer reagents (1 M Hepes, 10 triton x-100, 100% glycerol, dithiothreitol 1 M MgCl2, ATP, 500 mM EDTA and DMSO) were purchased from Sigma. Coating reagent (CR-3), was obtained from Caliper Life Sciences.
0.05% Triton X-100, 2.5% glycerol, 0.1% CR-3, and 0,6% DMSO. Termination butler included 100 mM Hepes (pH 7.5), 40 mM EDTA, 0.05% Triton X-100, 2.5% glycerol, 0.3% CR-3, and 0.6% DMSO.
All assay components were made in reaction buffer. […] The assaylvas allowed to incubate at room temperature sealed and protected from light for 1 hour.
After 1 hour, 10 μl of termination buffer was added to terminate, the reaction, and the plate was read on a Lab Chip 3000. The plate was read for one cycle. The Lab Chip separated substrate and product based on charge.
Results were calculated based on percent conversion of substrate to product using the following formula: […]
Percent inhibition and IC50's for compounds of the invention were determined using the percent conversion values obtained horn the Lab Chip.

Consider `CCCCCCCCc1ccc(CNC(=O)[C@@H](N)CCO)cc1` [Example 57, (S)-2-Amino-4-hydroxy-N-(4-octylbenzyl)butanamide], for which the IC50 turned out to be 3.5 µM.

Turning to `CCCCCCCCc1ccc(NC(=O)[C@@H](N)[C@H](O)CC)cc1` (racemic) [Example 5, (±)-erythro-DL-2-Amino-3-hydroxy-N-(4-octylphenyl) pentanamide], the half-inhibitory concentration (IC50) was found to be 3.2 µM.
